Target: T1, Aurora kinase A (Homo sapiens, UniProt O14965)
T1 sequence (O14965 whole entry): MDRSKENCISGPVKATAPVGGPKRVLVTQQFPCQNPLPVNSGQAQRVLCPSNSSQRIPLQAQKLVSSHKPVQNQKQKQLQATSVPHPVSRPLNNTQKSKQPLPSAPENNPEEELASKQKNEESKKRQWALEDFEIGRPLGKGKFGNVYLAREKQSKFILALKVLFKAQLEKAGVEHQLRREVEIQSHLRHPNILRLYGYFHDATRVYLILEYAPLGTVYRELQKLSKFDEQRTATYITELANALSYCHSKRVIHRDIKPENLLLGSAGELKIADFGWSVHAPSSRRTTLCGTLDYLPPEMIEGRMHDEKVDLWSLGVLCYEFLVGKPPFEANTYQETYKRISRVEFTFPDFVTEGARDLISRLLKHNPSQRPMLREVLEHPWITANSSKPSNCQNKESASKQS
Experiment: Inhibition of aurora kinase A autophosphorylation at T288 in human HCT116 cells by immunofluorescence analysis
Format: cell-based, HCT-116

O=C(O)c1ccc(Nc2ncc3c(n2)-c2ccc(Cl)cc2C(c2ccccc2F)=NC3)cc1
IC50: 170 nM

Reference: ChEMBL document CHEMBL3585345 (ACS Med Chem Lett, 2015)
